This note sets out measurements from BindingDB's records for PubMed 10869375 (R. W. Johnson Pharmaceutical Research Institute, 2000).

Amino acid sequences for entries named in this document (tags omitted).
UniProt Q5PPG3, whole entry: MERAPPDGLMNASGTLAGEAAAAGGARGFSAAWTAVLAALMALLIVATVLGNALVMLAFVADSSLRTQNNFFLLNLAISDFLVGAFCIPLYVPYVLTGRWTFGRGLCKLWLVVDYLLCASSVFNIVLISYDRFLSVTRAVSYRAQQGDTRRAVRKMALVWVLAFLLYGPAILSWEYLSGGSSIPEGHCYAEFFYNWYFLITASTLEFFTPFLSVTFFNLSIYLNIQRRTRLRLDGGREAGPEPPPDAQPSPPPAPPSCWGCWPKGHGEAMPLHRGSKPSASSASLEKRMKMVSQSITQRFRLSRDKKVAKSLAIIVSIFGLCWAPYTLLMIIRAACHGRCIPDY

As usually defined, the Ki is the dissociation constant of the complex between target and ligand, obtained from inhibition or displacement.

Molecules are shown by their SMILES. Several values for one entry are separate records, joined by “and”; a condition that tells them apart may be missing. Identical values can stand only once.

This assay deals with Hrh3 protein (Rattus norvegicus, UniProt Q5PPG3).

On to `NC(=NCc1ccc(Cl)cc1)SCCCc1cnc[nH]1` [VUF 9153], for which the Ki was 500 pM and 400 pM.
